Measured values as given in US8828401B2, “Cytotoxic peptides and antibody drug conjugates thereof” (Pfizer Inc., priority 2011, dated 2014).

Columns and labels:
N87 gastric xenografts = N87 gastric xenografts with anti-Notch ADCs; assay type: in vivo, nude (Nu/Nu) female mice
Protocol: (§1) Humanized anti-Notch antibodies, hu28 and hu75, and rat-human chimeric anti-Notch antibodies, ch28 and ch75, were conjugated to various linker-payload combinations and tested in 37622A1 non-small cell lung cancer (NSCLC), HCC2429 lung cancer, MDA-MB-468 breast cancer and N87 gastric cancer xenograft models. For each model described below the first dose was given on Day 0. The tumors were measured at least once a week and their volume was calculated with the formula: tumor volume (mm^3)=0.5×(tumor width^2)(tumor length). The mean tumor volumes (±S.E.M.) for each treatment group were calculated having a maximum of 10 animals and a minimum of 6 animals to be included.
Similar in vivo experiments were performed with the N87 gastric cancer cell line as described above. […] When the tumors reached a volume of 250 to 450 mm^3, the tumors were staged to ensure uniformity of the tumor mass among various treatment groups. The N87 gastric model was dosed intraveneously Q4dx4 with PBS vehicle, humanized anti-Notch ADCs, control huNeg-8.8 ADCs and cisplatin at the doses provided in Tables 16 and 17.

[1] = tested on: MDA-MB-468 breast xenografts; assay: MDA-MB-468 breast xenografts with anti-Notch ADCs; assay type: in vivo, female SCID Hairless Outbred (SHO) mice
Protocol: as §1
Similar in vivo experiments were performed with the MDA-MB-468 breast cancer cell line as described above. […] To generate xenografts, female SCID Hairless Outbred (SHO) mice were orthotopically implanted with 10×10^6 MDA-MB-468 cells containing 50% Matrigel (BD Biosciences) in the mammary fat pad. When the tumors reached a volume of 250 to 450 mm^3, the tumors were staged to ensure uniformity of the tumor mass among various treatment groups. The MDA-MB-468 breast model was dosed intraveneously Q4dx4 with PBS vehicle, humanized anti-Notch ADCs and control huNeg-8.8 ADCs at the doses provided in Tables 14 and 15.

B1: hu75-vc0101: humanized anti-Notch antibody hu75 conjugated to mcValCitPABC-#54 (conjugate)
heavy: EVQLVESGGGLVQPGGSLRLSCAASGYAFTDYWMTWVRQAPGKGLEWVAEISPNSGGTNFNEKFKGRFTISVDNAKNSLYLQMNSLRAEDTAVYYCARGEIRYNWFAYWGQGTLVTVSSASTKGPSVFPLAPSSKSTSGGTAALGCLVKDYFPEPVTVSWNSGALTSGVHTFPAVLQSSGLYSLSSVVTVPSSSLGTQTYICNVNHKPSNTKVDKKV[human IgG1 Fc left out]
light: DIQMTQSPSSLSASVGDRVTITCKASQNVGNNIAWYQQKPGKAPKLLIYYASNRYTGVPSRFSGSGYGTDFTLTISSLQPEDFATYYCQRLYNSPFTFGGGTKVEIKRTVAAPSVFIFPPSDEQLKSGTASVVCLLNNFYPREAKVQWKVDNALQSGNSQESVTEQDSKDSTYSLSSTLTLSKADYEKHKVYACEVTHQGLSSPVTKSFNRGEC
tumor volume (mm^3 ± SEM) (N87 gastric xenografts; Dose 1 mg/kg Q4dx4 iv, DAY 0): 321 ± 9 mm^3
tumor volume (mm^3 ± SEM) (N87 gastric xenografts; Dose 1 mg/kg Q4dx4 iv, DAY 4): 392 ± 15 mm^3
tumor volume (mm^3 ± SEM) (N87 gastric xenografts; Dose 1 mg/kg Q4dx4 iv, DAY 7): 417 ± 25 mm^3
tumor volume (mm^3 ± SEM) (N87 gastric xenografts; Dose 1 mg/kg Q4dx4 iv, DAY 11): 331 ± 21 mm^3
tumor volume (mm^3 ± SEM) (N87 gastric xenografts; Dose 1 mg/kg Q4dx4 iv, DAY 14): 305 ± 17 mm^3
tumor volume (mm^3 ± SEM) (N87 gastric xenografts; Dose 1 mg/kg Q4dx4 iv, DAY 18): 267 ± 17 mm^3
tumor volume (mm^3 ± SEM) (N87 gastric xenografts; Dose 1 mg/kg Q4dx4 iv, DAY 21): 218 ± 23 mm^3
tumor volume (mm^3 ± SEM) (N87 gastric xenografts; Dose 1 mg/kg Q4dx4 iv, DAY 26): 185 ± 24 mm^3
tumor volume (mm^3 ± SEM) (N87 gastric xenografts; Dose 1 mg/kg Q4dx4 iv, DAY 29): 211 ± 37 mm^3
tumor volume (mm^3 ± SEM) (N87 gastric xenografts; Dose 1 mg/kg Q4dx4 iv, DAY 33): 251 ± 53 mm^3
tumor volume (mm^3 ± SEM) (N87 gastric xenografts; Dose 1 mg/kg Q4dx4 iv, DAY 36): 272 ± 59 mm^3
tumor volume (mm^3 ± SEM) (N87 gastric xenografts; Dose 1 mg/kg Q4dx4 iv, DAY 39): 304 ± 72 mm^3
tumor volume (mm^3 ± SEM) (N87 gastric xenografts; Dose 1 mg/kg Q4dx4 iv, DAY 42): 314 ± 73 mm^3
tumor volume (mm^3 ± SEM) (N87 gastric xenografts; Dose 1 mg/kg Q4dx4 iv, DAY 47): 334 ± 95 mm^3
tumor volume (mm^3 ± SEM) (N87 gastric xenografts; Dose 1 mg/kg Q4dx4 iv, DAY 53): 393 ± 115 mm^3
tumor volume (mm^3 ± SEM) (N87 gastric xenografts; Dose 1 mg/kg Q4dx4 iv, DAY 62): 463 ± 155 mm^3
tumor volume (mm^3 ± SEM) (N87 gastric xenografts; Dose 1 mg/kg Q4dx4 iv, DAY 70): 658 ± 241 mm^3
tumor volume (mm^3 ± SEM) (N87 gastric xenografts; Dose 3 mg/kg Q4dx4 iv, DAY 0): 324 ± 19 mm^3
tumor volume (mm^3 ± SEM) (N87 gastric xenografts; Dose 3 mg/kg Q4dx4 iv, DAY 4): 362 ± 35 mm^3
tumor volume (mm^3 ± SEM) (N87 gastric xenografts; Dose 3 mg/kg Q4dx4 iv, DAY 7): 303 ± 21 mm^3
tumor volume (mm^3 ± SEM) (N87 gastric xenografts; Dose 3 mg/kg Q4dx4 iv, DAY 11): 174 ± 14 mm^3
tumor volume (mm^3 ± SEM) (N87 gastric xenografts; Dose 3 mg/kg Q4dx4 iv, DAY 14): 172 ± 10 mm^3
tumor volume (mm^3 ± SEM) (N87 gastric xenografts; Dose 3 mg/kg Q4dx4 iv, DAY 18): 151 ± 10 mm^3
tumor volume (mm^3 ± SEM) (N87 gastric xenografts; Dose 3 mg/kg Q4dx4 iv, DAY 21): 130 ± 5 mm^3
tumor volume (mm^3 ± SEM) (N87 gastric xenografts; Dose 3 mg/kg Q4dx4 iv, DAY 26): 92 ± 14 mm^3
tumor volume (mm^3 ± SEM) (N87 gastric xenografts; Dose 3 mg/kg Q4dx4 iv, DAY 29): 104 ± 16 mm^3
tumor volume (mm^3 ± SEM) (N87 gastric xenografts; Dose 3 mg/kg Q4dx4 iv, DAY 33): 91 ± 18 mm^3
tumor volume (mm^3 ± SEM) (N87 gastric xenografts; Dose 3 mg/kg Q4dx4 iv, DAY 36): 86 ± 18 mm^3
tumor volume (mm^3 ± SEM) (N87 gastric xenografts; Dose 3 mg/kg Q4dx4 iv, DAY 39): 59 ± 16 mm^3
tumor volume (mm^3 ± SEM) (N87 gastric xenografts; Dose 3 mg/kg Q4dx4 iv, DAY 42): 81 ± 22 mm^3
tumor volume (mm^3 ± SEM) (N87 gastric xenografts; Dose 3 mg/kg Q4dx4 iv, DAY 47): 80 ± 25 mm^3
tumor volume (mm^3 ± SEM) (N87 gastric xenografts; Dose 3 mg/kg Q4dx4 iv, DAY 53): 86 ± 24 mm^3
tumor volume (mm^3 ± SEM) (N87 gastric xenografts; Dose 3 mg/kg Q4dx4 iv, DAY 62): 106 ± 35 mm^3
tumor volume (mm^3 ± SEM) (N87 gastric xenografts; Dose 3 mg/kg Q4dx4 iv, DAY 70): 148 ± 54 mm^3
tumor volume (mm^3 ± SEM) (N87 gastric xenografts; Dose 5 mg/kg Q4dx4 iv, DAY 0): 320 ± 11 mm^3
tumor volume (mm^3 ± SEM) (N87 gastric xenografts; Dose 5 mg/kg Q4dx4 iv, DAY 4): 315 ± 15 mm^3
tumor volume (mm^3 ± SEM) (N87 gastric xenografts; Dose 5 mg/kg Q4dx4 iv, DAY 7): 246 ± 12 mm^3
tumor volume (mm^3 ± SEM) (N87 gastric xenografts; Dose 5 mg/kg Q4dx4 iv, DAY 11): 156 ± 10 mm^3
tumor volume (mm^3 ± SEM) (N87 gastric xenografts; Dose 5 mg/kg Q4dx4 iv, DAY 14): 151 ± 7 mm^3
tumor volume (mm^3 ± SEM) (N87 gastric xenografts; Dose 5 mg/kg Q4dx4 iv, DAY 18): 128 ± 6 mm^3
tumor volume (mm^3 ± SEM) (N87 gastric xenografts; Dose 5 mg/kg Q4dx4 iv, DAY 21): 115 ± 7 mm^3
tumor volume (mm^3 ± SEM) (N87 gastric xenografts; Dose 5 mg/kg Q4dx4 iv, DAY 26): 82 ± 10 mm^3
tumor volume (mm^3 ± SEM) (N87 gastric xenografts; Dose 5 mg/kg Q4dx4 iv, DAY 29): 75 ± 12 mm^3
tumor volume (mm^3 ± SEM) (N87 gastric xenografts; Dose 5 mg/kg Q4dx4 iv, DAY 33): 73 ± 12 mm^3
tumor volume (mm^3 ± SEM) (N87 gastric xenografts; Dose 5 mg/kg Q4dx4 iv, DAY 36): 85 ± 9 mm^3
tumor volume (mm^3 ± SEM) (N87 gastric xenografts; Dose 5 mg/kg Q4dx4 iv, DAY 39): 72 ± 13 mm^3
tumor volume (mm^3 ± SEM) (N87 gastric xenografts; Dose 5 mg/kg Q4dx4 iv, DAY 42): 74 ± 13 mm^3
tumor volume (mm^3 ± SEM) (N87 gastric xenografts; Dose 5 mg/kg Q4dx4 iv, DAY 53): 69 ± 13 mm^3
tumor volume (mm^3 ± SEM) (N87 gastric xenografts; Dose 5 mg/kg Q4dx4 iv, DAY 62): 50 ± 15 mm^3
tumor volume (mm^3 ± SEM) (N87 gastric xenografts; Dose 5 mg/kg Q4dx4 iv, DAY 70): 76 ± 22 mm^3
effect on growth of N87 gastric xenografts (in words) (N87 gastric xenografts; humanized ADCs, Q4dx4, doses of Tables 16 and 17): inhibited growth of N87 gastric xenografts in a dose-dependent manner
tumor volume (mm^3 ± SEM) ([1]; Dose 0.3 mg/kg Q4dx4 iv, DAY 0): 348 ± 21 mm^3
tumor volume (mm^3 ± SEM) ([1]; Dose 0.3 mg/kg Q4dx4 iv, DAY 4): 439 ± 31 mm^3
tumor volume (mm^3 ± SEM) ([1]; Dose 0.3 mg/kg Q4dx4 iv, DAY 7): 435 ± 27 mm^3
tumor volume (mm^3 ± SEM) ([1]; Dose 0.3 mg/kg Q4dx4 iv, DAY 11): 504 ± 38 mm^3
tumor volume (mm^3 ± SEM) ([1]; Dose 0.3 mg/kg Q4dx4 iv, DAY 14): 507 ± 30 mm^3
tumor volume (mm^3 ± SEM) ([1]; Dose 0.3 mg/kg Q4dx4 iv, DAY 18): 587 ± 44 mm^3
tumor volume (mm^3 ± SEM) ([1]; Dose 0.3 mg/kg Q4dx4 iv, DAY 21): 590 ± 55 mm^3
tumor volume (mm^3 ± SEM) ([1]; Dose 0.3 mg/kg Q4dx4 iv, DAY 26): 652 ± 64 mm^3
tumor volume (mm^3 ± SEM) ([1]; Dose 0.3 mg/kg Q4dx4 iv, DAY 29): 675 ± 63 mm^3
tumor volume (mm^3 ± SEM) ([1]; Dose 0.3 mg/kg Q4dx4 iv, DAY 32): 738 ± 70 mm^3
tumor volume (mm^3 ± SEM) ([1]; Dose 0.3 mg/kg Q4dx4 iv, DAY 35): 821 ± 69 mm^3
tumor volume (mm^3 ± SEM) ([1]; Dose 0.3 mg/kg Q4dx4 iv, DAY 39): 864 ± 74 mm^3
tumor volume (mm^3 ± SEM) ([1]; Dose 0.3 mg/kg Q4dx4 iv, DAY 42): 997 ± 84 mm^3
tumor volume (mm^3 ± SEM) ([1]; Dose 1 mg/kg Q4dx4 iv, DAY 0): 347 ± 22 mm^3
tumor volume (mm^3 ± SEM) ([1]; Dose 1 mg/kg Q4dx4 iv, DAY 4): 410 ± 32 mm^3
tumor volume (mm^3 ± SEM) ([1]; Dose 1 mg/kg Q4dx4 iv, DAY 7): 383 ± 33 mm^3
tumor volume (mm^3 ± SEM) ([1]; Dose 1 mg/kg Q4dx4 iv, DAY 11): 373 ± 33 mm^3
tumor volume (mm^3 ± SEM) ([1]; Dose 1 mg/kg Q4dx4 iv, DAY 14): 350 ± 40 mm^3
